Test results: ChEMBL document CHEMBL5131543, “Studying Lipophilicity Trends of Phosphorus Compounds by 31P-NMR Spectroscopy: A Powerful Tool for the Design of P-Containing Drugs” (J Med Chem, 2022)

Assays:
[1] = Octanol-water partition coefficient, logP of compound by shake flask method based 31P-NMR analysis
[2] = […]-water partition coefficient, logP of compound by shake flask method based 31P-NMR analysis; conditions: octanol/water
[3] = Basicity of hydrogen bond, pKHB of compound by IR spectroscopy; type: physicochemical

Row | Compound | logP [1] | logP [2] | pKHB [3]
1 | CCOP(C)(=O)OCCN(C(C)C)C(C)C (stereo not drawn) | 0.08 | – | –
2 | CCOP(C)(=O)OCC | 0.05 | 0.05 | 2.72
3 | CP(=O)(OC1CCCCC1)OC1CCCCC1 | 2.14 | – | –
4 | CCOP(C)(=S)OCC | – | – | 1.07
5 | COP(C)(=O)OC | – | -0.73 | –
6 | CCOP(C)(=O)SCC (stereo not drawn) | – | – | 2.46
